Test results as given in patent US20260384438A1, “PYRROLOPYRIMIDINE CARBOXAMIDES” (published 2026).

Sequences of proteins named here, by UniProt entry; tags and fusion partners are left off. Residues count along the entry.
UniProt P04629, 33-796 limits assumed: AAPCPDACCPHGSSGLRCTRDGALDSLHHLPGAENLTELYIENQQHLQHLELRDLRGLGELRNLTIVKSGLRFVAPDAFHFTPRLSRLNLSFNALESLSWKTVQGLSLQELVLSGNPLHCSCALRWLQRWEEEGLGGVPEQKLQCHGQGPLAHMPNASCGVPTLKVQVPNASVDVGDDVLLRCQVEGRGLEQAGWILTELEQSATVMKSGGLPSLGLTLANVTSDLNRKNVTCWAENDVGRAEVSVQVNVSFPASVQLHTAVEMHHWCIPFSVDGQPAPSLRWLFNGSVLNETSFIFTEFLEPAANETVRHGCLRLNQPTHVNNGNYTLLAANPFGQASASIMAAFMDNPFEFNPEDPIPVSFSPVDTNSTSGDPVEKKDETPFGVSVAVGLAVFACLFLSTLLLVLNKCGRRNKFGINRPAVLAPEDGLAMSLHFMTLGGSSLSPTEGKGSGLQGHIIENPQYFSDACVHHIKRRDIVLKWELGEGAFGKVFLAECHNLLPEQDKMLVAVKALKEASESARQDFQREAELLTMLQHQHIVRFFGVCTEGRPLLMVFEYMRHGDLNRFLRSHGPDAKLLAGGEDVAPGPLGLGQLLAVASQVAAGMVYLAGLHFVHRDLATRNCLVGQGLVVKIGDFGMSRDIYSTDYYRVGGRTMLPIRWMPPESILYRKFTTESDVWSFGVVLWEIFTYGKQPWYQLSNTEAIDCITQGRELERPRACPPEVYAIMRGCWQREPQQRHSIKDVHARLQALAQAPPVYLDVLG
UniProt O75116, whole entry: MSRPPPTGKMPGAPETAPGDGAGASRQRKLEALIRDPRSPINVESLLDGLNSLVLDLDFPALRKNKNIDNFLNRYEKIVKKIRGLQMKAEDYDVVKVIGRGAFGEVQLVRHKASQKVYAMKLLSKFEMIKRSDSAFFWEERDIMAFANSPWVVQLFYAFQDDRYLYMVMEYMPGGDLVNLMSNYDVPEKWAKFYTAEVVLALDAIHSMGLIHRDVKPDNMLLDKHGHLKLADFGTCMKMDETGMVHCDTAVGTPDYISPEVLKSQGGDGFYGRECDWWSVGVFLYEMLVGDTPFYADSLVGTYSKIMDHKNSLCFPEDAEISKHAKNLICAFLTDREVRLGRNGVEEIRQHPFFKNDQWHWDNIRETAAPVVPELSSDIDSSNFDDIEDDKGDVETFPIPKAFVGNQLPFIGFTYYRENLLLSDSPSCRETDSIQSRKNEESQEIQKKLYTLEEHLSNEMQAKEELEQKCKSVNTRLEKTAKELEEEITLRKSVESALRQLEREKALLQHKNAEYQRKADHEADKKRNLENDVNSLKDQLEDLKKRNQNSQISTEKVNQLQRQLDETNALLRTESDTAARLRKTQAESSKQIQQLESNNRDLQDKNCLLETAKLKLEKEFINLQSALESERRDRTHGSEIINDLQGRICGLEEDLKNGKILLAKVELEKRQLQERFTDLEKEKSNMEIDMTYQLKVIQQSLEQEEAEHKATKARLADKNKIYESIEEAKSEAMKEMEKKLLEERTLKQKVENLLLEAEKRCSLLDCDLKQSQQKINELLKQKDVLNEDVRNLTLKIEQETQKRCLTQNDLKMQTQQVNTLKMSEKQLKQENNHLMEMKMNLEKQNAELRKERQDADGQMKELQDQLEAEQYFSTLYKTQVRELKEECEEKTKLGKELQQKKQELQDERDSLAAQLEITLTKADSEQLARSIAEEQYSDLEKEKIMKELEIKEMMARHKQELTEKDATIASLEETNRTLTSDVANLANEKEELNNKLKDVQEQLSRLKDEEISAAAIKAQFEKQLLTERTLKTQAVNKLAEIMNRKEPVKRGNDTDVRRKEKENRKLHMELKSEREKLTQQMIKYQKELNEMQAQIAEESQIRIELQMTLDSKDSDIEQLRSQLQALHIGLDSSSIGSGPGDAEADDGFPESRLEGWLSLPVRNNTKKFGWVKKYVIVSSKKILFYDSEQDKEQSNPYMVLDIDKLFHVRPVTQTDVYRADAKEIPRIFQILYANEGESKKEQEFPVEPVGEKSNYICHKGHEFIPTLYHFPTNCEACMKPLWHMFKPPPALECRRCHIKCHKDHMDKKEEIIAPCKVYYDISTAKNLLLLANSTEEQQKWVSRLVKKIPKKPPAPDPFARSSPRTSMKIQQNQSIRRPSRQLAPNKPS
UniProt Q13873, 27-1038 limits assumed: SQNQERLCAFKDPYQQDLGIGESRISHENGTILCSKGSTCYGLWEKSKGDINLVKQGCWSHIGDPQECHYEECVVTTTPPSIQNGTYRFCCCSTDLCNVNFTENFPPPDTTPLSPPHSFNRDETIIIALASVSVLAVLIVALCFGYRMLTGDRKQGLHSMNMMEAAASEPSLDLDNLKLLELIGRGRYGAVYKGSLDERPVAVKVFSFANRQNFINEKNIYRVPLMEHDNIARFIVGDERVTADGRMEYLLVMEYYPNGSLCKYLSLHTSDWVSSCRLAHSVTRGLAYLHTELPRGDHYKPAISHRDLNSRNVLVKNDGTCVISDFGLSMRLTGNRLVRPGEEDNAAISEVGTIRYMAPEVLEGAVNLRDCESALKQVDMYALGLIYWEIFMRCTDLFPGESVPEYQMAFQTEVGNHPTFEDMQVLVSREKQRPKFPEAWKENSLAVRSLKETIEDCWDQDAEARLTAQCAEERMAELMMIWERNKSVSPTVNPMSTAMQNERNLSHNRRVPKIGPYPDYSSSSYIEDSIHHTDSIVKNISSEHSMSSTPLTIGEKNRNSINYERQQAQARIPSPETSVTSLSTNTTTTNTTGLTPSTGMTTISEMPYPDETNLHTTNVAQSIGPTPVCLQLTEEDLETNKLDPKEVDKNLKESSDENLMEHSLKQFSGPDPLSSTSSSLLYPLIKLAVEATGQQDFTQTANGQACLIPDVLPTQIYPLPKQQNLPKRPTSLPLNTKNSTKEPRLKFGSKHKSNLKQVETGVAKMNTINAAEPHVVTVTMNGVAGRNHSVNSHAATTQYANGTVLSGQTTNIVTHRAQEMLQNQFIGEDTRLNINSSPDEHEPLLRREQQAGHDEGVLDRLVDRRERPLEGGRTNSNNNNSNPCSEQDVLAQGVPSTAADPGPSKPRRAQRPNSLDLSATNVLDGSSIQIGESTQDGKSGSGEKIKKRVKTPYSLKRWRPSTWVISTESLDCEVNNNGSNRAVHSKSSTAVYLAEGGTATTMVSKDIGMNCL
UniProt Q8IVH8, whole entry: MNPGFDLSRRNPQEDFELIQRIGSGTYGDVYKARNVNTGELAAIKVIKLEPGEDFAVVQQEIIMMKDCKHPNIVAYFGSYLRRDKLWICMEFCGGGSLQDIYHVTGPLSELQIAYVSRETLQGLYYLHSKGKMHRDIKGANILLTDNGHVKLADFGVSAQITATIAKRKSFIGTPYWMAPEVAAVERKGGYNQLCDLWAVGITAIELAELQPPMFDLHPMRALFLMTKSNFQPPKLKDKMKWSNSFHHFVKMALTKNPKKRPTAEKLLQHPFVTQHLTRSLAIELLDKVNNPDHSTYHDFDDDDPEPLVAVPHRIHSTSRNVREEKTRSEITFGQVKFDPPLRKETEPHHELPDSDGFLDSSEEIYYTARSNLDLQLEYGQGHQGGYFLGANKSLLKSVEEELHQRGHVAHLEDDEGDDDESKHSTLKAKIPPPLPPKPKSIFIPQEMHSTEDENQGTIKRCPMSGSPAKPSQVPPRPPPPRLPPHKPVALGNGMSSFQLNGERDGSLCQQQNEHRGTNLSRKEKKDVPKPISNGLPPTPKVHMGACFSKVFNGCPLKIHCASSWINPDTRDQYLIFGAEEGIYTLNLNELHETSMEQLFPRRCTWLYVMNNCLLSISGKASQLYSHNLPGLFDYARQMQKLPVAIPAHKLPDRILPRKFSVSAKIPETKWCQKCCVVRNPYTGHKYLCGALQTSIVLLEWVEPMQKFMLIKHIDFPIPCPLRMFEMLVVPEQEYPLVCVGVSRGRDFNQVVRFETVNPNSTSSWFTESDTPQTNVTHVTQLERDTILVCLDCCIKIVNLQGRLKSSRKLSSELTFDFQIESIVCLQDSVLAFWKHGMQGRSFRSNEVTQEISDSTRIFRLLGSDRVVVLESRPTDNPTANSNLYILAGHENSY
UniProt P49760, whole entry: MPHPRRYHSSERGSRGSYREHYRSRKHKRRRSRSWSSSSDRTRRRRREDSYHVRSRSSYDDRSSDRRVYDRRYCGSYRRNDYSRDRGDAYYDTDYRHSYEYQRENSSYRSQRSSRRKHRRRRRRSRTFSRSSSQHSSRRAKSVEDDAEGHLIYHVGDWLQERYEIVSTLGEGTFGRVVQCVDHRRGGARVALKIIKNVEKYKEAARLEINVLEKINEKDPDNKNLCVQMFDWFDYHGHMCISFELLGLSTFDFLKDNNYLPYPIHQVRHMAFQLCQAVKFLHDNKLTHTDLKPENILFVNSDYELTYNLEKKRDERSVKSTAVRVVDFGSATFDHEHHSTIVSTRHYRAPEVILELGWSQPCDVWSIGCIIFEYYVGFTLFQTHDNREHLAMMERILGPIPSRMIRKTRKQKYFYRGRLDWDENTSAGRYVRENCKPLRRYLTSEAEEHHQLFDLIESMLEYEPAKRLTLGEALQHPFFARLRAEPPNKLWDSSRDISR
UniProt P37023, 22-503 limits assumed: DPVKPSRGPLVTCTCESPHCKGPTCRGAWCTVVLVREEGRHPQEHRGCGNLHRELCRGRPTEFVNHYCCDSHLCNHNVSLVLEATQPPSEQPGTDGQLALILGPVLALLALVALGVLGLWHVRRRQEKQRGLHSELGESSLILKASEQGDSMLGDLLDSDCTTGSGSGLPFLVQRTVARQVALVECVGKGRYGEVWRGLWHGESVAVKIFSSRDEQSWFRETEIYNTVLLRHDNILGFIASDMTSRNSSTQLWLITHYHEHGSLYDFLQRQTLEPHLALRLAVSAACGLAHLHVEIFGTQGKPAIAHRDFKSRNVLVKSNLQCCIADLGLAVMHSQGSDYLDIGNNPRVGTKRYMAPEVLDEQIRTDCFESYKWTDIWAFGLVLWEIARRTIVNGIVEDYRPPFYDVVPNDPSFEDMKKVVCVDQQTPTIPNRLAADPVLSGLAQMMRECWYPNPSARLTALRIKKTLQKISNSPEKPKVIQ
UniProt O76039, whole entry: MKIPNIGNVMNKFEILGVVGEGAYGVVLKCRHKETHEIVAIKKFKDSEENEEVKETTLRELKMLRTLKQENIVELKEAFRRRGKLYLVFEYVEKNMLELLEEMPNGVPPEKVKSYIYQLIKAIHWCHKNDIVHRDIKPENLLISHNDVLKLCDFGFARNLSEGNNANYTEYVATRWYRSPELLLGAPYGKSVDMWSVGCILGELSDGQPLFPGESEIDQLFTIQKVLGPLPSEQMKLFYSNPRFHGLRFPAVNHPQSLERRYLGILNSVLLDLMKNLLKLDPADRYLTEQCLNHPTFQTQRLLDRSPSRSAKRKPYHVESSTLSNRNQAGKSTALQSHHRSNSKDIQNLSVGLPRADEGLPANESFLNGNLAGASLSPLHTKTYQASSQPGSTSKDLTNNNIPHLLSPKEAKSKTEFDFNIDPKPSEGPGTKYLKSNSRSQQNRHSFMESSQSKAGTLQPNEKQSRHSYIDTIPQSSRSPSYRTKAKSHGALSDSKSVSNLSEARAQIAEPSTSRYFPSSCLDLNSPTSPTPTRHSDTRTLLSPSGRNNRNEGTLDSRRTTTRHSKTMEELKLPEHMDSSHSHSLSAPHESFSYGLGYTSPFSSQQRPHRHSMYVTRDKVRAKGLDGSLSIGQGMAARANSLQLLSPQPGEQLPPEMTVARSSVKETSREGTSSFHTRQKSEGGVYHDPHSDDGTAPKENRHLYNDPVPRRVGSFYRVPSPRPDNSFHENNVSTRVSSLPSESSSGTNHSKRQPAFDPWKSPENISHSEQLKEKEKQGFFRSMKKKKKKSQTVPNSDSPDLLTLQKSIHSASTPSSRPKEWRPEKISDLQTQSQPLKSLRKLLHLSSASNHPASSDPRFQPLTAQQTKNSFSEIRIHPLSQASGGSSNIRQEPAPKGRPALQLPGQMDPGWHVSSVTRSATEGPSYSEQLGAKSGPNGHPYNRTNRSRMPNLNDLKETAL
UniProt P15531, whole entry: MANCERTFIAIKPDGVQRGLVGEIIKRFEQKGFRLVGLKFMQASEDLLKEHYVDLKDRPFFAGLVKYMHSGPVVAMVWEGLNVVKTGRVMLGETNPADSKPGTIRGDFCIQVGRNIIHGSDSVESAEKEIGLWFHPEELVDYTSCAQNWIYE
UniProt P52564, whole entry: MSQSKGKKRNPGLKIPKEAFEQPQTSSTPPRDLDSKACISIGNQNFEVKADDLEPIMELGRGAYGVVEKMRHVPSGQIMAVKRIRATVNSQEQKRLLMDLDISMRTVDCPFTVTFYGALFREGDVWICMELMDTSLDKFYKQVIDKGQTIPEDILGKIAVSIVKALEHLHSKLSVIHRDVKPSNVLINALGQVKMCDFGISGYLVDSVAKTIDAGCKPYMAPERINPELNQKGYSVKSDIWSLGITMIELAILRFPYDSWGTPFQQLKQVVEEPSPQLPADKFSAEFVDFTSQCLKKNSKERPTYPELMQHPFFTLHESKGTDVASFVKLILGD

Legend:
Test in all cases: KAT chemical proteomics
[1] = molecular target: IRAK1 (Homo sapiens, UniProt P51617)
[2] = molecular target: CDK18 (Homo sapiens, UniProt Q07002)
[3] = molecular target: NTRK1 (Homo sapiens, UniProt P04629)
[4] = molecular target: CDK2 (Homo sapiens, UniProt P24941)
[5] = molecular target: CDK7 (Homo sapiens, UniProt P50613)
[6] = molecular target: ROCK2 (Homo sapiens, UniProt O75116)
[7] = molecular target: CMPK1 (Homo sapiens, UniProt P30085)
[8] = molecular target: BMPR2 (Homo sapiens, UniProt Q13873)
[9] = molecular target: PI4KA (Homo sapiens, UniProt P42356)
[10] = molecular target: ADCK5 (Homo sapiens, UniProt Q3MIX3)
[11] = molecular target: MAP4K3 (Homo sapiens, UniProt Q8IVH8)
[12] = molecular target: IRAK4 (Homo sapiens, UniProt Q9NWZ3)
[13] = molecular target: PRKD3 (Homo sapiens, UniProt O94806)
[14] = molecular target: PRKX (Homo sapiens, UniProt P51817)
[15] = molecular target: RPS6KA6 (Homo sapiens, UniProt Q9UK32)
[16] = molecular target: RET (Homo sapiens, UniProt P07949)
[17] = molecular target: RPS6KA5 (Homo sapiens, UniProt O75582)
[18] = molecular target: IRAK3 (Homo sapiens, UniProt Q9Y616)
[19] = molecular target: TTK (Homo sapiens, UniProt P33981)
[20] = tested on: FKBP1A
[21] = molecular target: CLK2 (Homo sapiens, UniProt P49760)
[22] = molecular target: ACVRL1 (Homo sapiens, UniProt P37023)
[23] = molecular target: PIM2 (Homo sapiens, UniProt Q9P1W9)
[24] = tested on: AKAP13
[25] = molecular target: CDKL5 (Homo sapiens, UniProt O76039)
[26] = molecular target: BUB1B (Homo sapiens, UniProt O60566)
[27] = molecular target: CDK4 (Homo sapiens, UniProt P11802)
[28] = molecular target: PRKACA (Homo sapiens, UniProt P17612)
[29] = molecular target: NME1 (Homo sapiens, UniProt P15531)
[30] = molecular target: IKBKB (Homo sapiens, UniProt O14920)
[31] = molecular target: EPHA5 (Homo sapiens, UniProt P54756)
[32] = molecular target: CDK9 (Homo sapiens, UniProt P50750)
[33] = molecular target: LYN (Homo sapiens, UniProt P07948)
[34] = molecular target: NEK9 (Homo sapiens, UniProt Q8TD19)
[35] = tested on: PRKAG1
[36] = molecular target: ADK (Homo sapiens, UniProt P55263)
[37] = molecular target: FYN (Homo sapiens, UniProt P06241)
[38] = molecular target: TK2 (Homo sapiens, UniProt O00142)
[39] = molecular target: FASTKD3 (Homo sapiens, UniProt Q14CZ7)
[40] = molecular target: MAP2K6 (Homo sapiens, UniProt P52564)
[41] = molecular target: MAP2K3 (Homo sapiens, UniProt P46734)

Q: Which results are given for Cc1nc(C(F)(F)F)c2c(C(N)=O)c(N)n(-c3c(C)ccc(O)c3C)c2n1 (single isomer, unassigned)?
A: RB50 [1]: >50 µM; RB50 [2]: >50 µM; RB50 [3]: >50 µM; RB50 [4]: >50 µM; RB50 [5]: >50 µM; RB50 [6]: >50 µM; RB50 [7]: >50 µM; RB50 [8]: >50 µM; RB50 [9]: >50 µM; RB50 [10]: >50 µM; RB50 [11]: >50 µM; RB50 [12]: >50 µM; RB50 [13]: >50 µM; RB50 [14]: >50 µM; RB50 [15]: >50 µM; RB50 [16]: >50 µM; RB50 [17]: >50 µM; RB50 [18]: >50 µM; RB50 [19]: >50 µM; RB50 [20]: >50 µM; RB50 [21]: 417 nM; RB50 [22]: 12 nM; RB50 [23]: >50 µM; RB50 [24]: >50 µM; RB50 [25]: 250 nM; RB50 [26]: >50 µM; RB50 [27]: >50 µM; RB50 [28]: >50 µM; RB50 [29]: >50 µM; RB50 [30]: >50 µM; RB50 [31]: 168 nM; RB50 [32]: >50 µM; RB50 [33]: >50 µM; RB50 [34]: >50 µM; RB50 [35]: >50 µM; RB50 [36]: >50 µM; RB50 [37]: 210 nM; RB50 [38]: >50 µM; RB50 [39]: >50 µM; RB50 [40]: >50 µM; RB50 [41]: >50 µM
